# Experimental data as given in paper PMC5018964, “Visualization and ligand-induced modulation of dopamine receptor dimerization at the single molecule level” (Scientific Reports, 2016).
# Amino acid sequences for entries named in this document (tags omitted). A change or cut given only in a name is not applied to a line headed by its entry. Residues count along the entry.
# UniProt P14416, whole entry: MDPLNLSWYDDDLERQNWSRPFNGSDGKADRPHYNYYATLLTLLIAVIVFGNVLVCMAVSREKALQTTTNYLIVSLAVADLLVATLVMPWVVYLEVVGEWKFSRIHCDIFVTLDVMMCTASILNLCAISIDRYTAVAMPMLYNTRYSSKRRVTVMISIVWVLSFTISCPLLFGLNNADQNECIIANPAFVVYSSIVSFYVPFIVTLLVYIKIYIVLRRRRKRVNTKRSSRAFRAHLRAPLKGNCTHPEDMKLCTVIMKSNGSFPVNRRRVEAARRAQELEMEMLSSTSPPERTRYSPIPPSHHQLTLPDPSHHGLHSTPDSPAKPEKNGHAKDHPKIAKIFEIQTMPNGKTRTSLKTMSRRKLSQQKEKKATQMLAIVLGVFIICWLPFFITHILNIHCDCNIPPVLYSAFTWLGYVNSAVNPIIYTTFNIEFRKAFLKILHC
# UniProt P14416, 1-414 isoform P14416-2: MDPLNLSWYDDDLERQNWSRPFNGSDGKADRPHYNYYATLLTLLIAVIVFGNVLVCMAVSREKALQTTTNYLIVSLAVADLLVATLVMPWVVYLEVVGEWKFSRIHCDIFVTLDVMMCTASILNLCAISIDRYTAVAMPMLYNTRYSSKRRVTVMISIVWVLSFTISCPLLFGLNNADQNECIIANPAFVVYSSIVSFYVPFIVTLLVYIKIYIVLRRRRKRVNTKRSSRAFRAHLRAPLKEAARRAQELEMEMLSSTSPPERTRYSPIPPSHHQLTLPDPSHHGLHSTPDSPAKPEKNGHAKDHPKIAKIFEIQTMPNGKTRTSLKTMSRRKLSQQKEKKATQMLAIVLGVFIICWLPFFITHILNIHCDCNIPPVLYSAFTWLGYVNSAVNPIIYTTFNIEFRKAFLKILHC
# UniProt P35462, whole entry: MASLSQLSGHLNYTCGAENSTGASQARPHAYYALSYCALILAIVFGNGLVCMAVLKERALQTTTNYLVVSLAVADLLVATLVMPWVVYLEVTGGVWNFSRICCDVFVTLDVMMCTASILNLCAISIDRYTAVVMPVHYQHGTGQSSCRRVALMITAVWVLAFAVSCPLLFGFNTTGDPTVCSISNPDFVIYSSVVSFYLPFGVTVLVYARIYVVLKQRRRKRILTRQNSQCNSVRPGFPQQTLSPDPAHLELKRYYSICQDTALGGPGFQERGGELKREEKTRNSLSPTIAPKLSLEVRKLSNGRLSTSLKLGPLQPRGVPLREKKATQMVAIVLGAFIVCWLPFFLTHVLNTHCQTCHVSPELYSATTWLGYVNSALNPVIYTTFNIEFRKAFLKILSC
# What was measured:
# [1] = molecular target: T1, human D2L (Homo sapiens, UniProt P14416); assay: [3H]spiperone competition/saturation binding, membranes of CHO cells expressing human D2L; conditions: [³H]spiperone competition, CHO cell membranes; read-out: Ki ± s.d. hD2L
# T1 construct: expressed in transfected cells
# [2] = molecular target: T2, human D2S (Homo sapiens, UniProt P14416); assay: [3H]spiperone competition/saturation binding, membranes of CHO cells expressing human D2S; conditions: [³H]spiperone competition, CHO cell membranes; read-out: Ki ± s.d. hD2S
# T2 construct: expressed in transfected cells
# [3] = molecular target: T3, SNAP-D2L receptor (Homo sapiens, UniProt P14416); assay: Single-molecule TIRF-M of SNAP-D2L receptors in CHO cells with ligands (dimerization, mobility, colocalization); type: cell-based; conditions: Alexa546-labeled SNAP-D2L in CHO cells incubated with ligand
# T3 construct: expressed in transfected cells
# [4] = molecular target: human D3 (Homo sapiens, UniProt P35462); assay: [3H]spiperone competition/saturation binding, membranes of CHO cells expressing human D3; conditions: read-out: Ki ± s.d. hD3; [³H]spiperone competition, CHO cell membranes
structure (smiles),measurement,setting,value
"CCCN(CCC)[C@H]1CCc2c(O)cccc2C1 [S-(–)-5-OH-DPAT, reference compound]",Ki,[1],8.6 ± 6.5 nM
same,Ki,[2],7.1 ± 2 nM
same,effect on monomer/dimer ratio and mobility of the SNAP-D2L receptor compared to ligand-free conditions,[3],increase of receptor dimerization and mobility
same,Ki,[4],1.3 ± 0.4 nM
